PubChem BioAssay AID493098 (Sanford-Burnham Center for Chemical Genomics, 2011)
Only a part is listed here, and it is no random draw. Calls of active or inactive are those of the source.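 How the source made its calls: active means compounds whose inhibition of the agonist-driven luminescence signal at 20 µM reaches about 50% (limit read from the data); inactive means the rest.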

Amino acid sequences for entries named in this document (tags omitted).
UniProt P51684, whole entry: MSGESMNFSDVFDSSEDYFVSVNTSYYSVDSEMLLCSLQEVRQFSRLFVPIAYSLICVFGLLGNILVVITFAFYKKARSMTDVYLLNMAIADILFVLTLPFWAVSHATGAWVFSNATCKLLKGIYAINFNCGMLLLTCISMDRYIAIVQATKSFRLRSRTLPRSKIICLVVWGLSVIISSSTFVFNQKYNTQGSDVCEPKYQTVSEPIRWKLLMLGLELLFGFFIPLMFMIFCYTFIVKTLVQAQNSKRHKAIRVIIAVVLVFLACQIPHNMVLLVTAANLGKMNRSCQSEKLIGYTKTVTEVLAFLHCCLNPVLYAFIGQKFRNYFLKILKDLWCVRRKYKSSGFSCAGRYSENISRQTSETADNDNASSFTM

These molecules were tested against C-C chemokine receptor type 6 (Homo sapiens) (UniProt P51684) (assay: CCR6 receptor antagonists, primary screen, cell-based, CHO-K1, luminescence, beta-arrestin, uHTS (AID 493098;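 further: cells stimulated with CCL20 at 14 nM final; plate controls were DMSO with CCL20 for no effect and DMSO without agonist for full effect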)). Details: CHO-K1 CCR6 PathHunter beta-arrestin, CCL20-stimulated, at 20 µM, active compounds read high.

SMILES	inhibition
N#Cc1ccc(C(=O)NCC2(N3CCCCC3)CCCCC2)cc1	inactive: 5.45%
CC(C)(C)OC(=O)N1CCC(N(C(=O)c2ccccc2)c2ccc(Cl)cc2)CC1	inactive: 3.18%
CN(C)C1(CNC(=O)c2cccc(C#N)c2)CCCCC1	inactive: -0.15%
c1ccc(CN2CCC(Nc3ccccc3)CC2)cc1	inactive: 16.1%
Cc1cc(N(CCCl)CCCl)ccc1C=O	inactive: 2.02%
CCCN1CCC(Nc2cc(OC)cc(OC)c2)CC1	inactive: -2.97%
COc1cc(C(=O)NCC2(N3CCOCC3)CCCCC2)cc(OC)c1C	inactive: 12.1%
O=C(NCC1(N2CCOCC2)CCCCC1)c1cc(Br)ccc1Cl	inactive: 14.1%
COc1ccc(C(=O)NCC2(N3CCOCC3)CCCCC2)cc1OC	inactive: 23.6%
CCOC(=O)N1CCC(Nc2ccc(C)cc2)CC1	inactive: 5.33%
N/C(=N\O)c1c(N)no[n+]1[O-]	inactive: 23%
CCc1cc(C(=O)NCC2(N3CCCCC3)CCCCC2)sc1C	inactive: 17.5%
O=C(OC1CN2CCC1CC2)C1c2ccccc2C=Cc2ccccc21 (stereo not given)	inactive: 2.32%
CCOc1ncccc1C(=O)NCC1(N2CCOCC2)CCCCC1	inactive: -7.69%
CN1CCC(Nc2ccc(F)c(Cl)c2)CC1	inactive: -3.18%
CC(C)(C)OC(=O)N1CCC(Nc2ccccc2)CC1	inactive: 4.94%
O=C(O)C1(Nc2ccccc2)CCN(Cc2ccccc2)CC1	inactive: 0.48%
CCCOc1ccc(C(=O)NCC2(N(C)C)CCCCC2)cc1	inactive: 12.5%
COc1cc(OC)cc(C(=O)NCC2(N3CCOCC3)CCCCC2)c1	inactive: -4.22%
COc1cccc(C(=O)N(c2cc(C)cc(C)c2)C2CCN(C(=O)OC(C)(C)C)CC2)c1	inactive: 10.9%
CCC(CO)(C(=O)OC1CN2CCC1CC2)c1ccccc1 (stereo not given)	inactive: 0.84%
CN1CCC(Nc2ccc(Cl)cc2)CC1	inactive: 8.91%
CC(=O)N(c1ccccc1)C1CCNCC1	inactive: 5.79%
COc1cc(OC)cc(C(=O)NCC2(N3CCCCC3)CCCCC2)c1	inactive: 7.6%
Cc1ccc(C(=O)NCC2(N3CCCCC3)CCCCC2)o1	inactive: 5.31%

SMILES	inhibition
Fc1ccccc1NC1CCN(Cc2ccccc2)CC1	inactive: 12.6%
Cc1ccc(NC2(C#N)CCN(Cc3ccccc3)CC2)cc1	inactive: 13.3%
Cc1ccccc1NC1(C#N)CCN(Cc2ccccc2)CC1	inactive: 4.38%
CCN1CCC(Nc2cccc(F)c2)CC1	inactive: 14.9%
O=C(NCC1(N2CCCCC2)CCCCC1)c1ccco1	inactive: 3.87%
CN(C)c1ccc(C(=O)NCC2(N3CCCCC3)CCCCC2)cc1	inactive: 10.3%
Cn1c(=O)[nH]cc(N(CCCl)CCCl)c1=O	inactive: 7.5%
O=C1CCN(Cc2ccccc2)CC1	inactive: -10%
CCOc1ccc(C)cc1CN(CCCl)CCCl	inactive: 15.7%
O=P1(N(CCCl)CCCl)SCCCS1	inactive: 10.1%
CCCCOc1ccc(C(=O)NCC2(N3CCOCC3)CCCCC2)cc1	inactive: 7.26%
O=C(NCC1(N2CCCCC2)CCCCC1)c1ccc(F)cc1	inactive: 9.19%
COc1ccc(NC2CCN(CCc3ccccc3)CC2)c(OC)c1	inactive: 0.96%
CCOC(=O)N1CCC(Nc2ccc(F)cc2)CC1	inactive: 11.6%
CCOC(=O)N1CCC(Nc2cccc(C)c2)CC1	inactive: 15.3%
COc1cc(C(=O)NCC2(N(C)C)CCCCC2)ccc1OC(F)F	inactive: 0.93%
COc1ccc(C(=O)NCC2(N3CCCCC3)CCCCC2)cc1	inactive: -9.21%
CC(C)(C)OC(=O)N1CCC(N(C(=O)c2ccccc2)c2ccc(F)cc2)CC1	inactive: 8.35%
COc1ccc(C(=O)NCC2(N3CCCCC3)CCCCC2)c(OC)c1OC	inactive: 16.6%
O=C(NCC1(N2CCCCC2)CCCCC1)c1ccc(=O)[nH]c1	inactive: 0.47%
O=C(NCC1(N2CCCCC2)CCCCC1)c1cccs1	inactive: 10.3%
CSc1ccccc1C(=O)NCC1(N2CCCCC2)CCCCC1	inactive: 10.3%
Cc1cccc(NC2(C#N)CCN(Cc3ccccc3)CC2)c1	inactive: 11%
O=C(NCC1(N2CCCCC2)CCCCC1)c1ccc(Cl)nc1	inactive: 2.82%
Cc1cc(C)cc(N(C(=O)c2ccccc2)C2CCN(C(=O)OC(C)(C)C)CC2)c1	inactive: 16.6%

SMILES	inhibition
O=C(NCC1(N2CCOCC2)CCCCC1)c1cc2ccccc2o1	inactive: 10%
O=C(NCC1(N2CCCCC2)CCCCC1)c1ccc(Cl)s1	inactive: 15.2%
N#CC1(Nc2ccccc2)CCN(Cc2ccccc2)CC1	inactive: -13%
O=C(OC1CN2CCC1CC2)C1c2ccccc2Oc2ccccc21 (stereo not given)	inactive: -3.53%
COc1ccc(Cl)cc1C(=O)NCC1(N2CCOCC2)CCCCC1	inactive: 11.8%
CCOC(=O)N1CCC(Nc2ccc(OC)cc2)CC1	inactive: 8.09%
CC(C)c1ccc(NC2CCN(C(=O)OC(C)(C)C)CC2)cc1	inactive: 11%
COc1ccc(CN(CCCl)CCCl)cc1Cl	inactive: -12.4%
CN(C)c1cccc(C(=O)NCC2(N3CCCCC3)CCCCC2)c1	inactive: 7.77%
COc1cc(OC)c(C(=O)NCC2(N(C)C)CCCCC2)cc1OC	inactive: 7.23%
O=C(NCC1(N2CCOCC2)CCCCC1)c1cc(F)c(F)cc1Cl	inactive: 5.25%
CN1CCC(Nc2cccc(F)c2)CC1	inactive: 3.91%
O=C(NCC1(N2CCCCC2)CCCCC1)c1cncc(Br)c1	inactive: 7.17%
CCCOc1ccc(C(=O)NCC2(N(C)C)CCCCC2)cc1OC	inactive: -0.15%
O=C(NCC1(N2CCCCC2)CCCCC1)c1ccc(OC(F)F)cc1	inactive: 14.7%
CCN1CCC(Nc2ccc(Cl)cc2)CC1	inactive: -0.78%
N#CC1(Nc2ccccc2)CCN(CCc2ccccc2)CC1	inactive: -4.94%
O=C(NCC1(N2CCCCC2)CCCCC1)c1cccc([N+](=O)[O-])c1	inactive: -1.28%
CSc1ccc(C(=O)NCC2(N3CCOCC3)CCCCC2)cc1	inactive: 5.84%
O=C(NCC1(N2CCCCC2)CCCCC1)c1cccc(C(F)(F)F)c1	inactive: 4.75%
COc1cc(C(=O)NCC2(N3CCCCC3)CCCCC2)ccc1OC(F)F	inactive: 2.08%
O=C(NCC1(N2CCOCC2)CCCCC1)c1cc(=O)[nH]c2ccccc12	inactive: 16.2%
CN1CCN(CCOC(=O)C(O)(c2ccccc2)c2ccccc2)CC1	inactive: 0.88%
CC(C)c1ccc(C(=O)NCC2(N3CCOCC3)CCCCC2)cc1	inactive: 4.37%
COc1ccc(NC2CCN(C(=O)OC(C)(C)C)CC2)cc1	inactive: 16.1%
